Test results as given in patent publication US20070258899A1, “Diagnostic and therapeutic agents” (KARYON-CTT LTD, priority 2006, published 2007).

Columns and labels:
HCT-15 tumors = conditions: 4 nmol into tail vein, 15 min circulation; for accumulation in HTC-15 tumors compared to normal tissue (europium content): perfused; for europium signal in kidney: due to excretion of the agent; for tumor-to-muscle ratio (europium content): HTC-15 tumors
[1] = test system: HCT-15-LM1 lung metastases; conditions: 4 nmol into tail vein, 15 min circulation; for accumulation in HCT-15-LM1 lung metastases compared to normal tissue (europium content): perfused

Substance	accumulation in HTC-15 tumors compared to normal tissue (europium content) (HCT-15 tumors)	europium signal in kidney (HCT-15 tumors)	tumor-to-muscle ratio (europium content) (HCT-15 tumors)	ratio of lung metastase Eu-content to-muscle Eu-content [1]	accumulation in HCT-15-LM1 lung metastases compared to normal tissue (europium content) [1]
Ac-aYGFVWGEE-(Teg-Glu)2-AMB-DTPA-Eu [MJ017]	accumulated strongly and selectively	high signal	high	4.1	accumulated strongly and selectively
a*YGFVWGEE*-(Teg-E)2-AMB-DTPA-Eu [MJ018]	accumulated strongly and selectively	high signal	high		accumulated strongly and selectively
